# Laboratory results from patent publication US9072791B2, “Photostabilized pharmaceutical compositions” (DENKI KAGAKU KOGYO KABUSHIKI KAISHA, priority 2008, dated 2015).
# “And” between values parts separate entries of the source, which are not always exact repeats. Identical values can stand only once.
# Test: Photostability test in glass vials not shielded from light: gelation, molecular weight, percent conjugation of MTX (Example 4(2))
# Type: physicochemical
# Protocol: Various photostabilizers (methyl p-hydroxybenzoate (methyl paraben), salicylic acid Na, thiosulfuric acid Na, thioglycolic acid Na, N-acetyltryptophan, and tryptophan) were each dissolved in a preparation buffer (0.9% NaCl containing 2 mM phosphate buffer, pH 7.4) to give a concentration of 1 or 10 mg/ml and thereafter filtered aseptically by passage through a 0.2-μm filter (Millex GV). A powder of the HA-MTX conjugate prepared in accordance with Production 1 was metered aseptically and dissolved in the filtered, photostabilizer-containing preparation buffer to give a concentration of 10 mg/mL; the thus prepared solutions were used as test samples. To prepare a control solution, the HA-MTX conjugate was dissolved in a photostabilizer-free preparation buffer at a concentration of 10 mg/mL. […]
# The irradiation was so performed as to give an illuminance of 4000 Lux at 25° C. from a fluorescent lamp for use in a photostability test (TOSHIBA FL20S•D-EDL-D65) by means of a photostability tester (ETAC LABONIC LA110). After the lapse of specified periods (0 h, 25 h, 50 h, 100 h, 150 h, and 300 h) of irradiation, samples were taken and not only checked for gelation but also measured for the molecular weight of the HA-MTX conjugate and the percent conjugation of MTX (in the HA-MTX conjugate). […]
smiles,measurement,value
"O=C([O-])c1ccccc1O.[Na+] [Na salicylate, sodium salicylate]","Molecular weight (×10^4), irradiation time 50 h",182 ×10^4 and 122 ×10^4
